Test results taken from patent US20210352889A1, “MACROCYCLIC TETRAPYRROLE COMPOUNDS, COMPOSITIONS AND METHODS FOR INCREASING ABIOTIC STRESS RESISTANCE IN PLANTS” (SUNCOR ENERGY INC., priority 2018, published 2021).

Tested on: white clover (Trifolium repens) seedlings
Test: Primary root length of white clover seedlings under salt stress (Example 3)
Type: in vivo
Settings: porphyrin 0.01% v/v, 7 days after germination, mean ± standard error
Procedure: In this example, the effect of porphyrin compounds on the sensitivity to salt stress of seedlings was evaluated. […] For exposure to salt, the water was adjusted to contain 100 mM NaCl. […] Salt stress tolerance was measured by determining the reduction of primary root length by analysis of pictures with the Image J™ software. Root lengths (mm) were measured 7 days after the germination. The following Table 3 summarizes the results.

Substance: zinc tetraphenylporphyrin
- Root length (mm) (0 mM NaCl): 0.97 ± 0.06 mm
- Root length (mm) (100 mM NaCl): 0.92 ± 0.02 mm
